# Measured values as given in US9340579B2, “DPP-4 inhibitor” (NIPPI, INCORPORATED, priority 2011, dated 2016).
# Target: T1, DPP-4 (manufactured by Sigma, derived from porcine kidney) (Sus scrofa, UniProt P22411)
# T1 construct: derived from porcine kidney; purchased Sigma; host or cells: porcine kidney (tissue-derived)
# Experiment: DPP-4 inhibition rate and IC50 measurement, fluorescence of AMC freed from Gly-Pro-MCA
# Assay type: biochemical
# Conditions: Table 2; for Inhibition rate (%) at 0.35 mg/ml time: sample 0.35 mg/ml, substrate Gly-Pro-MCA, pH 7.5, 37° C.; for IC50 value: sample concentration changed between 0.001 and 7.2 μmol/ml
# Protocol: A sample liquid 35 μl obtained by dissolving a sample 1 mg in 50 mM tris-hydrochloric acid buffer (pH 7.5) 1 ml and DPP-4 (manufactured by Sigma, derived from porcine kidney; 8.6 mU/ml) 15 μl that had been dissolved in 50 mM tris-hydrochloric acid buffer (pH 7.5) were mixed in a microtiter plate well (manufactured by NUNC, trade name “237015”) and incubated at 37° C. for 10 minutes.
# Thereto, 50 μl of a substrate solution (one obtained by dissolving glycyl-Pro-4-methylcoumarin-7-amide (Gly-Pro-MCA) in 50 mM tris-hydrochloric acid buffer (pH 7.5) so as to be 10 μM) that had in advance heated to and kept at 37° C. was added, mixed, and allowed to react at 37° C. for 20 minutes.
# The fluorescence intensity of 7-amino-4-methylcoumarin (AMC) that was freed by DPP-4 was measured with time by a microplate reader type fluorescence detector (manufactured by Corona Electric Co., Ltd., trade name “SH-9000”). Note that the measurement wavelength was an excitation wavelength of 380 nm and a measurement wavelength of 460 nm. Note that one obtained by using the same amount of 50 mM tris-hydrochloric acid buffer (pH 7.5) in replace of the sample was used as a control; and the fluorescence intensity thereof was measured.
# The activity of DPP-4 was expressed by an average gradient of change in the amount of the fluorescence intensity during the reaction time; and, as for DPP-4 inhibition rate, difference obtained by, with the control as 100%, subtracting the activity of the sample from the above-mentioned control was calculated as an inhibition rate (%).
# In accordance with the above method of measuring a DPP-4 inhibition rate, sample concentration was changed between 0.001 and 7.2 μmol/ml to obtain the inhibition rate, thereby calculating the 50% inhibitory concentration (IC50 value) of the activity of DPP-4.
Substance,Inhibition rate (%) at 0.35 mg/ml time [%],IC50 value
"Ala-Hyp (AP; non-natural residues) [Comparative Example 6, reference compound]",0,No inhibitory
"Hyp-Gly (PG; non-natural residues) [Comparative Example 7, reference compound]",0,No inhibitory
"Phe-Hyp (FP; non-natural residues) [Comparative Example 4, reference compound]",0,No inhibitory
"Pro-Hyp (PP; non-natural residues) [compound 5, reference compound]",0,No inhibitory
